System: CYP3A4/5
Type: in vitro ADME, human
Details: in vitro; testosterone 6-hydroxylase activity

kind of inhibition of CYP3A4/5: reversible inhibitor
Substance: phenylbutyrate [PBA]

From patent US20190076384A1, “METHODS FOR TREATING UREA CYCLE DISORDERS” (priority 2017, published 2019)
